Data taken from publication PMC11484851, “Structure of endothelin ETB receptor–Gi complex in a conformation stabilized by unique NPxxL motif” (Communications Biology, 2024).

Tests used:
Assay in all cases: cell-based or functional assay
[1] = target: T1, ETBR S390A (human, UniProt P24530 27-442, S390A)
T1 sequence (looked up): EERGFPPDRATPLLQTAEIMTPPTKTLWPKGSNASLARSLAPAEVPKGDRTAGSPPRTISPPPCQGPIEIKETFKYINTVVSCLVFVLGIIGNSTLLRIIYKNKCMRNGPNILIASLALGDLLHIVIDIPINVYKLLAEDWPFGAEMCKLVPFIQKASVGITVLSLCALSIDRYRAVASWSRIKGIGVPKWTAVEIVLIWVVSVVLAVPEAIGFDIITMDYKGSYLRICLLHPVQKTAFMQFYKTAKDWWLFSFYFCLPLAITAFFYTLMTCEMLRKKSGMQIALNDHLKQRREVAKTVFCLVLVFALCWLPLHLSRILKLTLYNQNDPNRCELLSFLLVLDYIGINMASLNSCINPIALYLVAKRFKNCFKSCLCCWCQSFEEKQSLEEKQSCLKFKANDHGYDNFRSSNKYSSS

[2] = target: T2, ETBR M296A (human, UniProt P24530 27-442, M296A)
T2 sequence (looked up): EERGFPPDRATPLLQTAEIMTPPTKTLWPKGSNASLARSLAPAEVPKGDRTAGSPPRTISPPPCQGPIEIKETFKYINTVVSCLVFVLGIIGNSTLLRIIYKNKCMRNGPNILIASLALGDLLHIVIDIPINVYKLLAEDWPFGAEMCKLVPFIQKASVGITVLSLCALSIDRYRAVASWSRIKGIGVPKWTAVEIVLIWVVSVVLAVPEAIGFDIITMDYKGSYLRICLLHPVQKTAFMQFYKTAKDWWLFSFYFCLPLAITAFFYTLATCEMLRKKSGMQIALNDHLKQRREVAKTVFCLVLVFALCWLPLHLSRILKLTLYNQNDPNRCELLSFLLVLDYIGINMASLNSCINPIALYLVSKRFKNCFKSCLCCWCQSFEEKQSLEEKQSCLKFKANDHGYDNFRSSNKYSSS

[3] = target: T3, ETBR M300A (human, UniProt P24530 27-442, M300A)
T3 sequence (looked up): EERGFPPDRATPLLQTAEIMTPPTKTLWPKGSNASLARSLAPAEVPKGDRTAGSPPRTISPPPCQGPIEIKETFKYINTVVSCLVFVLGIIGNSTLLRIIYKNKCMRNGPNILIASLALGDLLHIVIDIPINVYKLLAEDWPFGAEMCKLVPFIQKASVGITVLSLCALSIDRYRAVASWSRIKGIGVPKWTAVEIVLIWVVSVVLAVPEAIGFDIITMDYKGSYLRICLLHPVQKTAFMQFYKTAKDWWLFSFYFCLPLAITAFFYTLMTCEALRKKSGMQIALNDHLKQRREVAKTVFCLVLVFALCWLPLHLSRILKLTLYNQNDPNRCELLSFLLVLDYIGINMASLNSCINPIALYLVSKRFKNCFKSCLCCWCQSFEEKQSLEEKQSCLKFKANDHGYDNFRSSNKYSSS

[4] = target: T4, ETBR V325A (human, UniProt P24530 27-442, V325A)
T4 sequence (looked up): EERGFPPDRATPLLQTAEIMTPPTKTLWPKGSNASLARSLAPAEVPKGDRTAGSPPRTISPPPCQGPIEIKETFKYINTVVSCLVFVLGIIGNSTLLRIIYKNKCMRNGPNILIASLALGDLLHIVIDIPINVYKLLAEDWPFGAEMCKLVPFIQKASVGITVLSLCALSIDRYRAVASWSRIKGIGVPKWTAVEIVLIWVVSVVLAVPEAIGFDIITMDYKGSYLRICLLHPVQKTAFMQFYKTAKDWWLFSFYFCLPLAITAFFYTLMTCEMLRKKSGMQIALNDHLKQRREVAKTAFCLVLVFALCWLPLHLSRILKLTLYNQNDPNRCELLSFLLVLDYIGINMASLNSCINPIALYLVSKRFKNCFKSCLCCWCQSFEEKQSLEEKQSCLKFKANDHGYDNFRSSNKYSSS

Measured: NanoBiT Gi-protein dissociation assay, ET-1-induced, HEK293A cells, mutant receptor against wild type, considering expression

B1: wild-type Gαi1 subunit (natural protein, human)
chain: MGCTLSAEDKAAVERSKMIDRNLREDGEKAAREVKLLLLGAGESGKSTIVKQMKIIHEAGYSEEECKQYKAVVYSNTIQSIIAIIRAMGRLKIDFGDSARADDARQLFVLAGAAEEGFMTAELAGVIKRLWKDSGVQACFNRSREYQLNDSAAYYLNDLDRIAQPNYIPTQQDVLRTRVKTTGIVETHFTFKDLHFKMFDVGGQRSERKKWIHCFEGVTAIIFCVALSDYDLVLAEDEEMNRMHESMKLFDSICNNKWFTDTSIILFLNKKDLFEEKIKKSPLTICYPEYAGSNTYEEAAAYIQCQFEDLNKRKDTKEIYTHFTCATDTKNVQFVFDAVTDVIIKNNLKDCGLF
~50 % reduction: all assays above
